Test results as given in patent publication US6207683A, “Benzocycloheptathiophene compounds” (Bridge Pharma, Inc., priority 1999, dated 2001).

Sequences of proteins named here, by UniProt entry; tags and fusion partners are left off.
UniProt P30546, whole entry: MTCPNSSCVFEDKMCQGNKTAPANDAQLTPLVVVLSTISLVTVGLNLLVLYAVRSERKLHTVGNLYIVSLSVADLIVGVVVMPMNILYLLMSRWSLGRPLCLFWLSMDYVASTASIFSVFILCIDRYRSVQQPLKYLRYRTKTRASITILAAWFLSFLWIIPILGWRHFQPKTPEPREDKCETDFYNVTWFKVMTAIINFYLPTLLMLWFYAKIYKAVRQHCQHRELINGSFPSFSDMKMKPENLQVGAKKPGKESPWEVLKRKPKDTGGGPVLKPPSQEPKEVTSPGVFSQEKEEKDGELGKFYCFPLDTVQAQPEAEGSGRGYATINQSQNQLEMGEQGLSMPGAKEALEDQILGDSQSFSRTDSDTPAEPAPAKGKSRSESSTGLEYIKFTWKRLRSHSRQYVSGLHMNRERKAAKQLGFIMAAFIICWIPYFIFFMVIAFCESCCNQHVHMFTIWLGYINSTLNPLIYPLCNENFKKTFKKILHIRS

Biological target: T1, histamine H1 -receptors (membranes from bovine cerebellum) (Bos taurus, UniProt P30546)
T1 construct: membranes from bovine cerebellum; from tissue; host or cells: bovine cerebellum membranes
Test: [^3 H]pyrilamine binding assay, histamine H1-receptors
Description: 1. Binding to histaminergic receptors
The affinities of the test compounds for histamine H1 -receptors were assessed using the [^3 H]pyrilamine binding assay, modified after Chang et al. Heterogeneity of Histamine H1 -Receptors. J. Neurochem. 1979, 32: 1653-1663 Briefly, membranes from bovine cerebellum were incubated with [^3 H]pyrilamine and the test compound at increasing concentrations. The specific binding of the radioactive ligand to the receptor was defined as the difference between total binding and nonspecific binding, determined in the presence of an excess of unlabelled ligand. IC50 values (concentration required to inhibit 50% of specific binding of [^3 H]pyrilamine) were determined by non linear regression analysis of the competition curves.

## CN1CCC(=C2c3ccccc3CC(=O)c3sccc32)CC1 [Ketotifen, ketotifen]
  IC50: 8.15 nM
